Source: article PMC9855794, “The Photobiomodulation of MAO-A Affects the Contractile Activity of Smooth Muscle Gastric Tissues” (Biomolecules, 2022)

Chains of the proteins cited; added tags and fusions are not shown.
UniProt P21397, whole entry: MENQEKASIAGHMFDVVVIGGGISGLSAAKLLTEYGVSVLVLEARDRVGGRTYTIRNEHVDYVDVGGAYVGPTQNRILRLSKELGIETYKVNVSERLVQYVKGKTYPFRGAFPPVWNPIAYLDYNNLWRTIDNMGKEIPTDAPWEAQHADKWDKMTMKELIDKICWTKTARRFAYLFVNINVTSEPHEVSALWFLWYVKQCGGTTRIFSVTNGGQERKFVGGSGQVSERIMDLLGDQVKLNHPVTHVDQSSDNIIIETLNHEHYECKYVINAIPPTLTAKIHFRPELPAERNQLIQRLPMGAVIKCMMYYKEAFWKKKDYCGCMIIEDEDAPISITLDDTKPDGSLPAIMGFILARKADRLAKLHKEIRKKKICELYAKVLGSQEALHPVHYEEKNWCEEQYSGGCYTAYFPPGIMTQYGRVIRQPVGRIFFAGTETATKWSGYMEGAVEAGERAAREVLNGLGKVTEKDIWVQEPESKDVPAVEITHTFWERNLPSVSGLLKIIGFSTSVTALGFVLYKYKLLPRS

Molecular target: T1, MAO-A (Homo sapiens, UniProt P21397)
T1 construct: gene MAOA
Assay: fluorimetric H2O2 detection, kinetic, Ex/Em […] nm, […] min
Assay type: biochemical
Conditions: read-out: % inhibition at 10 nM

## C#CCN(C)CCCOc1ccc(Cl)cc1Cl [clorgyline]
  inhibition at 0.01 µM: 45%
